# Test results taken from ChEMBL document CHEMBL6109073, “Discovery of β-amino acid substituted naphthalene sulfonamide derivatives as potent Kelch-like ECH-associated protein 1-nuclear factor erythroid 2-related factor 2 (Keap1-Nrf2) protein-protein interaction inhibitors for ulcerative colitis management” (Eur J Med Chem, 2025).
# Test system: NCM460
# Assay: Cytotoxicity against human NCM460 cells at 100 uM by CCK8 method
# Format: toxicity, cell-based
# Conditions: ncm460, 100 µM
structure (smiles),measurement,value
Cc1cc(C)c(S(=O)(=O)N(CC(=O)O)c2ccc(N[C@@H](C)CC(=O)O)c3ccccc23)c(C)c1,Activity,Non-toxic
